Data published in ChEMBL document CHEMBL6074662, “Antibacterial, Antibiofilm, and Anti-inflammatory Effects of a Novel Thrombin-Derived Peptide in Sepsis Models: Insights into Underlying Mechanisms” (J Med Chem, 2024).
Values after ≈ are worked out from the molar mass of the structure shown.

Tests used:
Bacillus subtilis = experiment: Antibacterial activity against Bacillus subtilis KCTC 3068 incubated for 24 hrs by CLSI based broth microdilution method; assay type: functional
Staphylococcus aureus [1] = experiment: Antibacterial activity against Staphylococcus aureus KCTC 1621 incubated for 24 hrs by CLSI based broth microdilution method; assay type: functional
[2] = system: Staphylococcus epidermidis; experiment: Antibacterial activity against Staphylococcus epidermidis KCTC 1917 incubated for 24 hrs by CLSI based broth microdilution method; assay type: functional
Staphylococcus aureus [3] = experiment: Antibacterial activity against methicillin-resistant Staphylococcus aureus CCARM 3089 incubated for 24 hrs by CLSI based broth microdilution method; assay type: functional
Staphylococcus aureus [4] = experiment: Antibacterial activity against methicillin-resistant Staphylococcus aureus CCARM 3090 incubated for 24 hrs by CLSI based broth microdilution method; assay type: functional
Staphylococcus aureus [5] = experiment: Antibacterial activity against methicillin-resistant Staphylococcus aureus CCARM 3095 incubated for 24 hrs by CLSI based broth microdilution method; assay type: functional
Escherichia coli = experiment: Antibacterial activity against Escherichia coli KCTC 1682 incubated for 24 hrs by CLSI based broth microdilution method; assay type: functional
Pseudomonas aeruginosa [6] = experiment: Antibacterial activity against Pseudomonas aeruginosa KCTC 1637 incubated for 24 hrs by CLSI based broth microdilution method; assay type: functional
Salmonella typhimurium = experiment: Antibacterial activity against Salmonella typhimurium KCTC 1926 incubated for 24 hrs by CLSI based broth microdilution method; assay type: functional, Salmonella enterica subsp. enterica serovar Typhimurium; conditions: Salmonella enterica
Pseudomonas aeruginosa [7] = experiment: Antibacterial activity against multidrug-resistant Pseudomonas aeruginosa CCARM 2095 incubated for 24 hrs by CLSI based broth microdilution method; assay type: functional
Pseudomonas aeruginosa [8] = experiment: Antibacterial activity against multidrug-resistant Pseudomonas aeruginosa CCARM 2109 incubated for 24 hrs by CLSI based broth microdilution method; assay type: functional

CC[C@H](C)[C@H](NC(=O)CN)C(=O)NCC(=O)N[C@@H](C)C(=O)N[C@H](C(=O)N[C@@H](CC(C)C)C(=O)N[C@@H](CCCCN)C(=O)N[C@H](C(=O)N[C@@H](CC(C)C)C(=O)N[C@H](C(=O)N[C@H](C(=O)NCC(=O)N[C@@H](CC(C)C)C(=O)N1CCC[C@H]1C(=O)N[C@@H](C)C(=O)N[C@@H](CC(C)C)C(=O)N[C@H](C(=O)N[C@@H](CO)C(=O)N[C@@H](Cc1c[nH]c2ccccc12)C(=O)N[C@H](C(=O)N[C@@H](CCCCN)C(=O)N[C@@H](CCCNC(=N)N)C(=O)N[C@@H](CCCCN)C(=O)N[C@@H](CCCNC(=N)N)C(=O)N[C@@H](CCC(N)=O)C(=O)N[C@@H](CCC(N)=O)C(N)=O)[C@@H](C)CC)[C@@H](C)CC)[C@@H](C)O)[C@@H](C)O)C(C)C)C(C)C [MELITTIN]
MIC (Bacillus subtilis): 2 µM (≈ 5.69 µg/mL)
MIC (Staphylococcus aureus [1]): 2 µM (≈ 5.69 µg/mL)
MIC [2]: 4 µM (≈ 11.4 µg/mL)
MIC (Staphylococcus aureus [3]): 4 µM (≈ 11.4 µg/mL)
MIC (Staphylococcus aureus [4]): 4 µM (≈ 11.4 µg/mL)
MIC (Staphylococcus aureus [5]): 4 µM (≈ 11.4 µg/mL)
MIC (Escherichia coli): 4 µM (≈ 11.4 µg/mL)
MIC (Pseudomonas aeruginosa [6]): 16 µM (≈ 45.5 µg/mL)
MIC (Salmonella typhimurium): 8 µM (≈ 22.8 µg/mL)
MIC (Pseudomonas aeruginosa [7]): 2 µM (≈ 5.69 µg/mL)
MIC (Pseudomonas aeruginosa [8]): 16 µM (≈ 45.5 µg/mL)
